Measurements published in paper PMC8698302, “An Antibacterial Peptide with High Resistance to Trypsin Obtained by Substituting D-Amino Acids for Trypsin Cleavage Sites” (Antibiotics, 2021).
Values after ≈ are worked out from the molar mass of the structure shown.

How the values were obtained:
Assay type in all cases: cell-based
[1] = system: Escherichia coli ATCC 25922; assay: Trypsin resistance assay (MIC after trypsin treatment); conditions: repeated three times
Protocol: The effect of different concentrations of trypsin on the antimicrobial activity of peptides was tested using previously reported methods. Trypsin was prepared to the required concentration. In the sterile 96-well plates, the peptide was continuously twofold diluted to different concentrations in trypsin solution. The plates were incubated at 37 °C, and the incubation time was determined according to the experiment requirements. The peptide alone and protease alone were used as a control. Samples were taken at different times, heated at 100 °C for 15 min to inactivate the protease, and centrifuged at 13,000× g for 30 min to precipitate the protease. […] The indicator bacterium was Escherichia coli ATCC25922. This experiment was repeated three times.

[2] = system: Escherichia coli ATCC25922; assay: Physiological salt sensitivity assay (MIC)
Protocol: The peptide salt sensitivity was evaluated by measuring the MIC. The method is as previously described. The peptides were diluted in deionized water containing different salts, and then an equal volume of Escherichia coli ATCC25922 solution (10^5 cfu/mL) was added. The mixture was incubated at 37 °C for 16 h. The final physiological concentrations of these salts were 150 mM NaCl, 4.5 mM KCl, 6 μM NH4Cl, 1 mM MgCl2, 8 μM ZnCl2 and 4 μM FeCl3, respectively. This experiment was repeated three times.

[3] = system: Escherichia coli ATCC25922; assay: Temperature sensitivity assay (MIC)
Protocol: The temperature and pH sensitivities of the peptides were determined by an MIC assay as described previously. For temperature sensitivity, the diluted peptide solution was incubated at 0 °C, 37 °C, 42 °C, 65 °C and 100 °C, respectively, for 30 min, then stopped heating and returned to room temperature. An equal volume of Escherichia coli ATCC25922 (10^5 CFU/mL) was added, and the mixture was incubated at 37 °C for 16 h. MIC values were observed. This experiment was repeated three times.

[4] = system: Escherichia coli ATCC25922; assay: pH sensitivity assay (MIC); conditions: then MIC 16 h 37 °C, repeated three times
Protocol: For pH sensitivity, we adjusted the diluent to pH 4.0, 6.0, 8.0 and 10.0 with HCl or NaOH, and then diluted the peptide with this diluent. The peptide solutions of different pH were incubated for 1 h, and then the pH of the reaction solution was neutralized by HCl or NaOH to terminate the reaction. An equal volume of Escherichia coli ATCC25922 (10^5 CFU/mL) was added, and the mixture was incubated at 37 °C for 16 h. MIC values were observed. This experiment was repeated three times.

[5] = system: Escherichia coli ATCC 25922; assay: Serum sensitivity assay (MIC)
Protocol: (§1) The serum sensitivities of the peptides were determined by an MIC assay as described previously. Bovine serum and rabbit plasma solutions of different concentrations (12.5%, 25%, 50% and 100%) were used as the diluent of the peptide, and the peptides were twice diluted and incubated at 37 °C for 1 h. After that, the reaction was terminated after treatment at 100 °C for 15 min and cooled to room temperature. The same volume of Escherichia coli ATCC25922 solution (10^5 CFU/mL) was incubated for 16 h at 37 °C. The change of MIC value was observed. This experiment was repeated three times.

[6] = system: Escherichia coli ATCC 25922; assay: Plasma sensitivity assay (MIC); conditions: 37 °C 1 h, 100 °C 15 min, then MIC 16 h 37 °C, repeated three times
Protocol: as §1

## CC[C@H](C)[C@H](NC(=O)CN)C(=O)NCC(=O)N[C@@H](C)C(=O)N[C@H](C(=O)N[C@@H](CC(C)C)C(=O)N[C@@H](CCCCN)C(=O)N[C@H](C(=O)N[C@@H](CC(C)C)C(=O)N[C@H](C(=O)N[C@H](C(=O)NCC(=O)N[C@@H](CC(C)C)C(=O)N1CCC[C@H]1C(=O)N[C@@H](C)C(=O)N[C@@H](CC(C)C)C(=O)N[C@H](C(=O)N[C@@H](CO)C(=O)N[C@@H](Cc1c[nH]c2ccccc12)C(=O)N[C@H](C(=O)N[C@@H](CCCCN)C(=O)N[C@@H](CCCNC(=N)N)C(=O)N[C@@H](CCCCN)C(=O)N[C@@H](CCCNC(=N)N)C(=O)N[C@@H](CCC(N)=O)C(=O)N[C@@H](CCC(N)=O)C(N)=O)[C@@H](C)CC)[C@@H](C)CC)[C@@H](C)O)[C@@H](C)O)C(C)C)C(C)C [Melittin]
[1]; control, in the absence of proteases
  MIC, Control: 2 µg/mL (≈ 0.703 µM)
[1]; peptide incubated in trypsin 0.625 mg/mL at 37 °C (time not given), 100 °C 15 min, centrifuged, then MIC 16 h 37 °C
  MIC in the presence of trypsin, 0.625 mg/mL: 16 µg/mL
[1]; peptide incubated in trypsin 1.25 mg/mL at 37 °C (time not given), 100 °C 15 min, centrifuged, then MIC 16 h 37 °C
  MIC in the presence of trypsin, 1.25 mg/mL: 32 µg/mL
[1]; peptide incubated in trypsin 2.5 mg/mL at 37 °C (time not given), 100 °C 15 min, centrifuged, then MIC 16 h 37 °C
  MIC in the presence of trypsin, 2.5 mg/mL: 64 µg/mL
[1]; peptide incubated in trypsin 5 mg/mL at 37 °C (time not given), 100 °C 15 min, centrifuged, then MIC 16 h 37 °C
  MIC in the presence of trypsin, 5 mg/mL: > 128 µg/mL
[1]; peptide incubated in trypsin 10 mg/mL at 37 °C (time not given), 100 °C 15 min to inactivate, centrifuged 13,000 g 30 min, then bacteria 10^5 CFU/mL, 16 h 37 °C
  MIC in the presence of trypsin, 10 mg/mL: >128 µg/mL
[1]; trypsin 10 mg/mL, 1 h at 37 °C, 100 °C 15 min, centrifuged, then MIC 16 h 37 °C
  MIC after trypsin (10 mg/mL), 1 h: >128 µg/mL
[1]; trypsin 10 mg/mL, 2 h at 37 °C, 100 °C 15 min, centrifuged, then MIC 16 h 37 °C
  MIC after trypsin (10 mg/mL), 2 h: >128 µg/mL
[1]; trypsin 10 mg/mL, 4 h at 37 °C, 100 °C 15 min, centrifuged, then MIC 16 h 37 °C
  MIC after trypsin (10 mg/mL), 4 h: >128 µg/mL
[2]; 4 μM FeCl3 final, 10^5 cfu/mL, 37 °C 16 h, repeated three times
  MIC in the presence of FeCl3: 2 µg/mL
[2]; 6 μM NH4Cl final, 10^5 cfu/mL, 37 °C 16 h, repeated three times
  MIC in the presence of NH4Cl: 2 µg/mL
[2]; 8 μM ZnCl2 final, 10^5 cfu/mL, 37 °C 16 h, repeated three times
  MIC in the presence of ZnCl2: 2 µg/mL
[2]; 1 mM MgCl2 final, 10^5 cfu/mL, 37 °C 16 h, repeated three times
  MIC in the presence of MgCl2: 2 µg/mL
[2]; 4.5 mM KCl final, 10^5 cfu/mL, 37 °C 16 h, repeated three times
  MIC in the presence of KCl: 2 µg/mL
[2]; 150 mM NaCl final, 10^5 cfu/mL, 37 °C 16 h, repeated three times
  MIC in the presence of NaCl: 4 µg/mL
[2]; control, MHB medium without physiological salts
  MIC, Control: 2 µg/mL
[3]; control, determined at 37 °C and pH 7.4
  MIC, Control: 2 µg/mL (≈ 0.703 µM)
[3]; peptide solution incubated at 0 °C for 30 min, returned to room temperature, then MIC 16 h 37 °C, repeated three times
  MIC after temperature treatment, 0 °C: 2 µg/mL (≈ 0.703 µM)
[3]; peptide solution incubated at 42 °C for 30 min, returned to room temperature, then MIC 16 h 37 °C, repeated three times
  MIC after temperature treatment, 42 °C: 2 µg/mL (≈ 0.703 µM)
[3]; peptide solution incubated at 65 °C for 30 min, returned to room temperature, then MIC 16 h 37 °C, repeated three times
  MIC after temperature treatment, 65 °C: 2 µg/mL (≈ 0.703 µM)
[3]; peptide solution incubated at 100 °C for 30 min, returned to room temperature, then MIC 16 h 37 °C, repeated three times
  MIC after temperature treatment, 100 °C: 2 µg/mL (≈ 0.703 µM)
[4]; peptide incubated 1 h at pH 4.0 (HCl/NaOH), neutralized
  MIC after pH treatment, pH4: 2 µg/mL
[4]; peptide incubated 1 h at pH 6.0, neutralized
  MIC after pH treatment, pH6: 2 µg/mL
[4]; peptide incubated 1 h at pH 8.0, neutralized
  MIC after pH treatment, pH8: 2 µg/mL
[4]; peptide incubated 1 h at pH 10.0, neutralized
  MIC after pH treatment, pH10: 2 µg/mL
[5]; bovine serum 12.5% as diluent, 37 °C 1 h, 100 °C 15 min, then MIC 16 h 37 °C, repeated three times
  MIC in the presence of serum, 12.5%: 32 µg/mL
[5]; bovine serum 25% as diluent, 37 °C 1 h, 100 °C 15 min, then MIC 16 h 37 °C, repeated three times
  MIC in the presence of serum, 25%: 64 µg/mL
[5]; bovine serum 50% as diluent, 37 °C 1 h, 100 °C 15 min, then MIC 16 h 37 °C, repeated three times
  MIC in the presence of serum, 50%: 64 µg/mL
[5]; bovine serum 100% as diluent, 37 °C 1 h, 100 °C 15 min, then MIC 16 h 37 °C, repeated three times
  MIC in the presence of serum, 100%: >128 µg/mL
[5]; control, in the absence of serum and plasma
  MIC, Control: 2 µg/mL (≈ 0.703 µM)
[6]; rabbit plasma 12.5% as diluent
  MIC in the presence of plasma, 12.5%: >128 µg/mL
[6]; rabbit plasma 25% as diluent
  MIC in the presence of plasma, 25%: >128 µg/mL
[6]; rabbit plasma 50% as diluent
  MIC in the presence of plasma, 50%: >128 µg/mL
[6]; rabbit plasma 100% as diluent
  MIC in the presence of plasma, 100%: >128 µg/mL
